For the test, the target named is T1, Glycogen phosphorylase, muscle form (Oryctolagus cuniculus, UniProt P00489).
T1 sequence (P00489 whole entry): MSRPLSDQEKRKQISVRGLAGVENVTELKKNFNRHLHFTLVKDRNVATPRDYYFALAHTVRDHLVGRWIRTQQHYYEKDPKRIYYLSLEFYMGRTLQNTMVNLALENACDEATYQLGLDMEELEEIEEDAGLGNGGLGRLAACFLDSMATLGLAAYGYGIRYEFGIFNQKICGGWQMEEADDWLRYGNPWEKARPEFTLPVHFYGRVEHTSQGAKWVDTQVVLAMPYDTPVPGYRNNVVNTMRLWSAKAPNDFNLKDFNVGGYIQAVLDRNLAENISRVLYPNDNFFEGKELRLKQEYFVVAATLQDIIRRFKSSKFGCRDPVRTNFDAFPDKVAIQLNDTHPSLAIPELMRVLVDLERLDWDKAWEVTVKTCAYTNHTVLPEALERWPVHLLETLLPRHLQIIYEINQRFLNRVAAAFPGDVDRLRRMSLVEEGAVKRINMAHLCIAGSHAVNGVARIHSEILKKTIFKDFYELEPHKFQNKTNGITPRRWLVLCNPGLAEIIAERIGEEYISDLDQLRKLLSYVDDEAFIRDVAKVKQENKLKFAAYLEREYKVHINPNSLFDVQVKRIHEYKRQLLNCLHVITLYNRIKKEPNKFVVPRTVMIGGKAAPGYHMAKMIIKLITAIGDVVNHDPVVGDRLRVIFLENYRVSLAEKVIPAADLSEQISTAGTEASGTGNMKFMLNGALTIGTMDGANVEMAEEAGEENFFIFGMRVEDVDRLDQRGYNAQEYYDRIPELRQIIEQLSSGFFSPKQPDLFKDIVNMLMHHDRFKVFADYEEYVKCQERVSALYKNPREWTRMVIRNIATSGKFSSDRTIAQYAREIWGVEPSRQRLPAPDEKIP
Briefly: Enzyme Inhibition Assay. As to conditions: pH 7.2; 22 °C. The method, then:
The activity of the compounds is determined by measuring the inhibitory effect of the compounds in the direction of glycogen synthesis, the conversion of glucose-1-phosphate into glycogen with the release of inorganic phosphate, which was monitored using microplate reader (BIO-RAD). […] The IC50 values were estimated by fitting the inhibition data to a dose dependent curve using a logistic derivative equation.

Molecules are shown by their SMILES.

Compound `CC1(C)CC[C@]2(C(=O)O)CC[C@]3(C)C(=CC[C@@H]4[C@@]5(C)CC[C@H](O)C(C)(C)C5CC[C@]43C)[C@@H]2C1` (some centres not stated) [pentacyclic triterpene compound 1] gave an IC50 of 14 µM.

For the compound `CC1(C)CC[C@]2(C(=O)O)CC[C@]3(C)C(=CC[C@@H]4[C@@]5(C)CC[C@@H](O)C(C)(C)C5CC[C@]43C)[C@@H]2C1` (some centres not stated) [pentacyclic triterpene compound 2], the IC50 was 21 µM.
